This passage reports IC50 results from paper PMC8308021, “Indole- and Pyrazole-Glycyrrhetinic Acid Derivatives as PTP1B Inhibitors: Synthesis, In Vitro and In Silico Studies” (Molecules, 2021).

The target of the assay is T1, PTP1B (Homo sapiens, UniProt P18031).
T1 sequence (P18031 1-435): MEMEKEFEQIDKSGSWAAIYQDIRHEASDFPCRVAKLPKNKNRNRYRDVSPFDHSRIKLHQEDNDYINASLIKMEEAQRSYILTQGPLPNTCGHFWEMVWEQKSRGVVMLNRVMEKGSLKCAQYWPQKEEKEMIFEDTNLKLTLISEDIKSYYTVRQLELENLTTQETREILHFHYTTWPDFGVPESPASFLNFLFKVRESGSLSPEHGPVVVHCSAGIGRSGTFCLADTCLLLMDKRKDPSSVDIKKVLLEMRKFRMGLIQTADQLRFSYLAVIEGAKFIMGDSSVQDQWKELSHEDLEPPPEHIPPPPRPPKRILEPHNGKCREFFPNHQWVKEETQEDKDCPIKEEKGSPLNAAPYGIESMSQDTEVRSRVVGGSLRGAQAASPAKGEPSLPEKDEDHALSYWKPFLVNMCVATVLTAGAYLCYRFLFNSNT
Briefly: PTP1B inhibitory assay (pNPP, spectrocolorimetric). In kind it is biochemical. The conditions noted are these: pNPP substrate; three independent determinations. The procedure: To test the inhibitory activity of the compounds against PTP1B, a spectrocolorimetric method previously described was employed. The compounds and positive control were dissolved in DMSO or buffer solution [50 mM; Tris-HCI Buffer, pH 6.8], DL-dithiothreitol 1.5 mM, all from Sigma–Aldrich, St. Louis, MO, USA. Aliquots of 0–10 μL of testing compounds (triplicated) were incubated for 10 min at 37 °C with 85 μL of enzyme stock solution (3 μM) in buffer solution. After incubation, 5 μL of the substrate p-nitrophenyl phosphate (pNPP, 0.5 mM, Sigma–Aldrich, St. Louis, MO, USA) were added and incubated a further 25 min at 37 °C; then, the absorbance was recorded at 415 nm.

As usually defined, the IC50 is the point on the concentration scale where inhibition reaches its midpoint. Low values mean greater potency in that assay, high ones weaker potency in that assay. Turning to `CC1(C)[C@@H](O)CC[C@]2(C)[C@H]3C(=O)C=C4[C@@H]5C[C@@](C)(C(=O)O)CC[C@]5(C)CC[C@@]4(C)[C@]3(C)CC[C@@H]12` [GA, glycyrrhetinic acid], half-maximal inhibition (IC50) was put at 62 ± 5.04 µM.
